Experimental data: BindingDB's records for PubMed 10617681 (Dupont Pharmaceuticals, 2000)

Amino acid sequences for entries named in this document (tags omitted). A change or cut given only in a name is not applied to a line headed by its entry.
UniProt P28335: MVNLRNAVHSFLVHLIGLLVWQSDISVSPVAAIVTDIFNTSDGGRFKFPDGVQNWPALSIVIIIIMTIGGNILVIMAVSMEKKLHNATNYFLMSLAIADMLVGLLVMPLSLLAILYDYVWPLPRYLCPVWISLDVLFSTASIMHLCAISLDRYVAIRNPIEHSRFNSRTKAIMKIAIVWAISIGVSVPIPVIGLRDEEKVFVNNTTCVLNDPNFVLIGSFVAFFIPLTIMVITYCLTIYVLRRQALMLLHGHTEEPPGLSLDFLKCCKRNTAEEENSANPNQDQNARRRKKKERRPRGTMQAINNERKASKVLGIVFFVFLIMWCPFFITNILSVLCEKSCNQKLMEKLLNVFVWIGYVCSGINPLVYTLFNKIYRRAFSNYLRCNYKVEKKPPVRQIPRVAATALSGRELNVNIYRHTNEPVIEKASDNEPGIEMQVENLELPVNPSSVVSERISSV

Biological target: 5-hydroxytryptamine receptor 2C (Homo sapiens, UniProt P28335)

Structure (SMILES): CCN[C@H](C)Cc1cccc(C(F)(F)F)c1 [NSC_65801]
- Ki: 1620 nM
